Experimental data as given in PubChem BioAssay AID588493 (Sanford-Burnham Center for Chemical Genomics, 2011).
The list shows a part of the results, in another mix than the full data. The source made the active and inactive calls.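 How the source made its calls: active means inhibition at 20 µM, scaled to each plate's controls, above about 33% (limit read from the data); inactive means the rest.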

Sequences of proteins named here, by UniProt entry; tags and fusion partners are left off.
UniProt O00487, whole entry: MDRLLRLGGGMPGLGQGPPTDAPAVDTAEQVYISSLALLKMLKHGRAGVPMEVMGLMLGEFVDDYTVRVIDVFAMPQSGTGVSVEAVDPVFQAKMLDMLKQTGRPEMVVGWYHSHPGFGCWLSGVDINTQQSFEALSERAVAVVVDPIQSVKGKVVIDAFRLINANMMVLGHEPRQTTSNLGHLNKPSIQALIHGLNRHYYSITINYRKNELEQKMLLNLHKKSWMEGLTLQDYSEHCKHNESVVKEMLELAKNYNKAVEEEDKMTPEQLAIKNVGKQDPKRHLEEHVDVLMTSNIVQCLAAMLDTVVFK

Each molecule was assayed against 26S proteasome non-ATPase regulatory subunit 14 (Homo sapiens) (UniProt O00487) (assay: inhibition of 26S proteasome subunit Rpn11 – biochemical, fluorescence polarization, uHTS, primary screen (AID 588493)). Conditions: human 26S proteasome, Ub4-pepOG fluorescence polarization; at 20 µM; stronger effect = higher value; 20S core pre-blocked with epoxomicin.
In the case of `COc1ccc(NP(C)(=O)Oc2ccccc2OC)cc1` (stereo unspecified), the inhibition is reported as inactive: -2.7%.
